Data as given in patent publication US5726018.

Key:
[1] = target: pp32 (32 kDa murine nuclear phosphoprotein from A20 cells) (murine) (UniProt O35381)
[2] = target: pp35, dephosphorylated (murine)
[3] = target: pp32, dephosphorylated (murine) (UniProt O35381)
[4] = target: pp35 (35 kDa murine nuclear phosphoprotein purified from A20 cells) (murine)

Measured: 32P incorporation (stoichiometry of phosphorylation)

catalytic subunit of cAMP-dependent protein kinase from bovine heart (Sigma) (from UniProt P00517) (enzyme)
< 0.02 mol/mol: all assays above
